{
  "source": "patent US20250360143A1",
  "about": "“COMPOSITIONS AND METHODS FOR PHARMACOLOGIC TREATMENT OF STROKE AND MYOCARDIAL ISCHEMIA REPERFUSION INJURY” (priority 2022, published 2025)",
  "molecular_target": "T1, hP2X4R (Homo sapiens, UniProt Q99571)",
  "T1 construct": "expressed in transfected cells; host or cells: HEK-293",
  "T1 sequence (Q99571 1-388)": "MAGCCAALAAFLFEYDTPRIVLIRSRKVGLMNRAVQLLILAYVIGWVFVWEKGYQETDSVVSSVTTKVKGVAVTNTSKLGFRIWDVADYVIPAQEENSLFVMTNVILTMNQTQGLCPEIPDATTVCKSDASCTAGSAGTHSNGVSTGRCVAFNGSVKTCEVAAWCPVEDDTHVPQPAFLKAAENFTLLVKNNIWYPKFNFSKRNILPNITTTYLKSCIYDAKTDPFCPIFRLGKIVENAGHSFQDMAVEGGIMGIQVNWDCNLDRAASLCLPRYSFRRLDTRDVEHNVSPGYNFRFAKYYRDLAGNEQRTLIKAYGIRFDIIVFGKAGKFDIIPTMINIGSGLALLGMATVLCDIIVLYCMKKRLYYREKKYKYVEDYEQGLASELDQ",
  "format": "cell-based",
  "data": [
    {"substance": "2′,3′-O-Trinitrophenyl-adenosine-5′-triphosphate [TNP-ATP, reference compound]", "values": [
      {"measurement": "IC50", "result": 2.77, "unit": "µM"}
    ]}
  ]
}
